Measurements from patent US10308712B2, “Antibodies that bind human cannabinoid 1 (CB1) receptor” (priority 2014, dated 2019).

Tested on: Trex-CHO CB1 receptor cells, WIN55,212 induced ERK phosphorylation
Experiment: ERK activation assay (western blot)
Settings: IgG 300 nM, WIN55,212 100 nM

In the case of `Cc1c(C(=O)NN2CCCCC2)nn(-c2ccc(Cl)cc2Cl)c1-c1ccc(Cl)cc1` [Rimonabant, reference compound], the “blocking of WIN55,212 induced ERK phosphorylation” value is reported as “inhibited”.
